Like-named read-outs stand apart in the source and are kept apart here.
Biological target: angiotensin II-induced vasoconstriction (Oryctolagus cuniculus, UniProt P34976)
Test: Inhibition of Angiotensin II Dose-Response in Rabbit Thoracic Aorta
Set-up: from tissue; host or cells: thoracic aorta rings of New Zealand white rabbits; species or system New Zealand white rabbits
Details: contraction, 95% C.L. in brackets
Method: Inhibition of Angiotensin II Dose-Response in Rabbit Thoracic Aorta
VII. Cellular and Biochemical pharmacology of DuP 753, an orally active antihypertensive agent. J. Pharmacol. Exp. Ther., 252, 726 (1990)]
Test compounds are diluted in dimethylsulfoxide vehicle such that a 50 μL addition to the tissue bath produces a final bath concentration of 1×10^-5 M compound in Krebs-bicarbonate buffer (baths contain 15 mL Krebs-bicarbonate buffer).
Procedure: 1.8 to 2.3 kg New Zealand white rabbits are sacrificed with an intravenous sodium pentobarbital overdose and the thoracic aorta gently dissected free from the aortic root to the level of the diaphragm, into ice cold Krebs bicarbonate buffer. The aorta is gently freed of clots and adventitia and cleanly cut into 5 mm segments. Each ring is suspended from a Gould isotonic force transducer in a tissue bath containing 15 mL oxygenated Krebs bicarbonate buffer regulated at 37° C. Initial tenison is adjusted to 4.0 g and equilibrated over three 20-minute wash periods with fresh Krebs-bicarbonate buffer to achieve a baseline tension of 3.0 g. […] […] […] In addition, since the test compounds are dissolved in DMSO, DMSO alone is tested in two rings as a vehicle control in each screening experiment.
Angiotensin II ED50 and ED90 is determined from the angiotensin II dose-response curves generated before and after test compound.

Sequences of proteins named here, by UniProt entry; tags and fusion partners are left off.
UniProt P34976, whole entry: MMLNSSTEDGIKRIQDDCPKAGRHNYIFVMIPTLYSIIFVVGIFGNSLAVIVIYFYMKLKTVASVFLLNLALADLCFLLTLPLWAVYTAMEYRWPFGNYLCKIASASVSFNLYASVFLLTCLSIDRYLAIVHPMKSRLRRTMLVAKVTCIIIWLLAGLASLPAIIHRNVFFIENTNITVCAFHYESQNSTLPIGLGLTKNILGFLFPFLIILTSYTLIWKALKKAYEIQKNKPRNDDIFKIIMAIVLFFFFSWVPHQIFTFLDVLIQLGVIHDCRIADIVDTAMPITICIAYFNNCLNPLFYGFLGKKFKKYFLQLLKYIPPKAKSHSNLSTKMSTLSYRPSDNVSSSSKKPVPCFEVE

- EC50 (after DMSO vehicle, read-out: Mean ED50 for angiotensin II after DMSO vehicle treatment): 1.88 nM
- EC50 (before DMSO vehicle, read-out: Mean ED50 for angiotensin II before DMSO vehicle treatment): 1.02 nM
Substance: angiotensin II [reference compound]
